Molecular target: T1, recombinant prolyl oligopeptidase (POP) (Homo sapiens, UniProt P48147)
T1 construct: purchased Sigma-Aldrich (Prague, Czech Republic)
T1 sequence (P48147 1-710): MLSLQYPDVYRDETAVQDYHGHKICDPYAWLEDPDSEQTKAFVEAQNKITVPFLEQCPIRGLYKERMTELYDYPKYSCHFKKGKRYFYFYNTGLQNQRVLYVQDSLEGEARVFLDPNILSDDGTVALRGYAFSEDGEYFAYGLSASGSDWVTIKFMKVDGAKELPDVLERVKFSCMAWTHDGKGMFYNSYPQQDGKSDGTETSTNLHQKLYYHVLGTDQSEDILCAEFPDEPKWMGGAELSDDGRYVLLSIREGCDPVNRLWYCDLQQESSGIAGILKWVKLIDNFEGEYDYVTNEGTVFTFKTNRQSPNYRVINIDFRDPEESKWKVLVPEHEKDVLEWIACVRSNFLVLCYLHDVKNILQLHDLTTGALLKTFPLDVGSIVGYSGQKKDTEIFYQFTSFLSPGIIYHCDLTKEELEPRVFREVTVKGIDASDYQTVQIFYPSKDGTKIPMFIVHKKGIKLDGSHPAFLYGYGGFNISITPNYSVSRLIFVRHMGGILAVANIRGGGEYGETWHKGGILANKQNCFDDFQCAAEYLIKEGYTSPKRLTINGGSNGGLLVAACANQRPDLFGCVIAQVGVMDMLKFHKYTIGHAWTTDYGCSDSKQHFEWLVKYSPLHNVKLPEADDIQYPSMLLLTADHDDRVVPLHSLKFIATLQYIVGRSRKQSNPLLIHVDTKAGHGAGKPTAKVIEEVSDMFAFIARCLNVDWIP
Assay: Prolyl oligopeptidase assay, substrate Z-Gly-Pro-p-nitroanilide
Format: biochemical

COc1ccc2cc3[n+](cc2c1OC)CCc1cc2c(cc1-3)OCO2 [Berberine, berberine chloride, reference compound]
IC50: 142 ± 21.5 µM

— PMC6152004 (Molecules : A Journal of Synthetic Chemistry and Natural …, 2017)
